# Experimental data as given in patent publication US11161831B2.
# Sequences of proteins named here, by UniProt entry; tags and fusion partners are left off.
# UniProt P40763, whole entry: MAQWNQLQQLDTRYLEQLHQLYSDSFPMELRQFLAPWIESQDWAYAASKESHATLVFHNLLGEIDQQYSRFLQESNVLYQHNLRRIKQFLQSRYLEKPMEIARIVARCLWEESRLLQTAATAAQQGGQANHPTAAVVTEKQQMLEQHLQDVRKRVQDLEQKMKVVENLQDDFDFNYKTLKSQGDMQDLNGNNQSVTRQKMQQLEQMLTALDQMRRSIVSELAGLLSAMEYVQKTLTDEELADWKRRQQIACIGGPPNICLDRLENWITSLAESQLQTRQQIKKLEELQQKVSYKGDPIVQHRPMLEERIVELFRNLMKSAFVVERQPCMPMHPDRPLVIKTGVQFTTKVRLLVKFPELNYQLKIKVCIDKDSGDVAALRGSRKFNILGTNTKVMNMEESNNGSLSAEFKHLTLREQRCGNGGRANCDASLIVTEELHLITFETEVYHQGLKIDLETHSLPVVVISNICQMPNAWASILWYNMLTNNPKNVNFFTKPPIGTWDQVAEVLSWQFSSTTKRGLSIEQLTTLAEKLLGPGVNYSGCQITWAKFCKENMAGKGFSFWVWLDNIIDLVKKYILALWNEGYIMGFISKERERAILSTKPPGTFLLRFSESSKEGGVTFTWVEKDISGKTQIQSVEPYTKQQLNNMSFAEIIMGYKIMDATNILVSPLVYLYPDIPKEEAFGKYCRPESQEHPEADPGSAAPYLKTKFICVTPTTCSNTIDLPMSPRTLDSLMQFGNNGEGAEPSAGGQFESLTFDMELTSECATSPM
# How the values were obtained:
# [1] = target: Stat3 (Homo sapiens, UniProt P40763); experiment: Stat3 SH2/pY-peptide binding assay (SPR, BIAcore); conditions: for IC50: read-out: SPR IC50, mean ± SD
# [2] = target: GFP-Stat3α (Homo sapiens, UniProt P40763); experiment: High-throughput fluorescence microscopy (HTFM) cytoplasmic-to-nuclear translocation assay in MEF/GFP-Stat3α cells; type: cell-based, murine; conditions: read-out: HTFM IC50; mean ± SD
# [3] = system: SUM159PT and HS578T cells; experiment: Mammosphere formation assay; type: cell-based; conditions: for IC50: read-out: Mammosphere ~IC50, SUM159PT and HS578T cells, compound at 1, 10, or 100 μM, 3 d, spheres counted on day 3
# [4] = system: human leukemic cell line; experiment: Human leukemic cell line (AML) apoptosis
SPR IC50 compared with the parent compound Cpd188 [1],IC50 [1] [µM],IC50 [2] [µM],IC50 [3] [µM],Compound,greater activity than parent Cpd188 in decreasing MSFE [3] [log],activity in inducing human leukemic cell line apoptosis compared with parent Cpd188 [4]
one log lower,2,49,3,O=S(=O)(Nc1cc(Sc2nc[nH]n2)c(O)c2ccccc12)c1ccc(Br)cc1,1,a log greater activity
–,8,22,30,Cc1cc(C)c(S(=O)(=O)Nc2cc(Cl)c(O)c3ccccc23)cc1C,–,–
